Columns and labels:
[1] = target: T1, β1AR (Homo sapiens, UniProt P08588); test: β-Arrestin-2 recruitment (PathHunter assay); assay type: cell-based; parameters: expressed in transfected cells; host or cells: HEK293T stably expressing enzyme-acceptor-tagged β-arrestin-2
[2] = target: T1, β1AR; test: Radioligand binding assay with membranes from HEK cells

Chains of the proteins cited; added tags and fusions are not shown.
UniProt P08588, whole entry: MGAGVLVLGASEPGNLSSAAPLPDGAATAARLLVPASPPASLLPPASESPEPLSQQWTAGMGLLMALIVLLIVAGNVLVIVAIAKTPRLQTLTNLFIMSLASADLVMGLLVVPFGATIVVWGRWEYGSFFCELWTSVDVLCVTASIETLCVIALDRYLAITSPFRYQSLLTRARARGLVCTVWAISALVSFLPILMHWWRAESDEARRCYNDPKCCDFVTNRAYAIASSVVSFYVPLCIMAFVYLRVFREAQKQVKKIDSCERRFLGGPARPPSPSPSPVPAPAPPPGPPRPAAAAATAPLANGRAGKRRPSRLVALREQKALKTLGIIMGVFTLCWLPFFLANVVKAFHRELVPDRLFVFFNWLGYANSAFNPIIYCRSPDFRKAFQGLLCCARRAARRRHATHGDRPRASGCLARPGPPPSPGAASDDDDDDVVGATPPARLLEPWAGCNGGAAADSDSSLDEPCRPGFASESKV

CNC[C@H](O)c1ccc(O)c(O)c1 [Epinephrine, epinephrine, reference compound] was tested, and the EC50 [1] was 380 ± 52 nM and the Ki [2] was 2200 ± 290 nM.

Source: paper PMC12101717, “Structure and dynamics determine G protein coupling specificity at a class A GPCR” (Science Advances, 2025)
